# OPERA 2.9 data: melting point values

Values as listed in the OPERA 2.9 repository of K. Mansouri.

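The numbers are reported measurements, compiled and curated for the OPERA QSAR suite. The files give a single number for a compound and property, which may rest on several reports. How each value was measured is not recorded, so precision varies. A value may pool stereoisomers or salt forms, and the file does not say which form was measured. Some upstream entries may be estimates or bounds without being marked so.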

The melting point is given in degrees Celsius.

| compound | mp (°C) |
|---|---|
| CCC(C)c1ccc(-c2csc(N)n2)cc1 (configuration not stated) | 78 |
| O=C(O)c1cc(F)c(F)cc1C(=O)O | 159 |
| O=CC(C=O)c1nc2ccccc2[nH]1 | 30 |
| COC(=O)COc1ccc(C)cc1OCC(=O)OC | 40 |
| O=[N+]([O-])c1cc(C(F)(F)F)ccc1CCl | 43.5 |
| Cc1ccc(C)c(N2C(=O)C=CC2=O)c1 | 80 |
| Nc1ccc2oc(=O)[nH]c2c1 | 205 |
| ClCc1nc(-c2ccccc2Cl)no1 | 38 |
| Nc1c2c(nn1-c1ccccc1)CCC2 | 181 |
| Cc1ccc(-n2c(C)c(C)c3c(N)ncnc32)cc1 | 204 |
| CCCCC(CC)COP(=O)(O)O.OCCNCCO (configuration not stated) | -63 |
| Cc1nc2ncnn2c(C)c1CCC(=O)O | 225 |
| FC(F)(F)C(F)(F)C(F)(F)C(F)(F)CC[SiH2]C(Cl)Cl | -42.3 |
| Cn1c(NN)nc2ccccc2c1=O | 151 |
| Cc1nn(CC(=O)O)c(C)c1[N+](=O)[O-] | 180 |
| S=c1[nH]nc(NCc2ccccc2)s1 | 147 |
| CCCCN1C(=O)c2ccc(C(=O)O)cc2C1=O | 153 |
| O=C(Nc1cccc(O)c1)c1ccccc1 | 172 |
| O=C1CCC(C(=O)O)CC1 | 63 |
| O=C(O)C1(c2ccc(Br)cc2)CCCCC1 | 180 |
| Nc1ccnn1Cc1ccccc1 | 83 |
| COc1ccc(S(=O)(=O)N2CCNCC2)cc1OC | 146 |
| CC(C)(C)OC(=O)Nc1ccc(F)c(N)c1 | 123 |
| CN(C)Cc1n[nH]c(=S)o1 | 203 |
| NC(=O)c1c(N)sc2c1CCC2 | 159 |
| CC(=O)NC(C(=O)O)C1CCCC1 (configuration not stated) | 173 |
| O=C1C=CC(Cl)=CC1=C1C=CNO1 | 202 |
| NNc1ncnc2sc(-c3ccccc3)cc12 | 264 |
| O=C1CN(C(=O)CCl)c2ccccc2N1 | 116 |
| O=C(O)c1ccc(Br)c(S(=O)(=O)Cl)c1 | 182 |
| OCC1(O)COC(O)(CO)CO1 (configuration not stated) | 78.5 |
| O=C(O)Cc1coc2cc(O)ccc12 | 128 |
| CC(C)COCC(CN(Cc1ccccc1)c1ccccc1)N1CCCC1.Cl.O (configuration not stated) | 91 |
| O=C(O)Cc1ccc(-n2cccn2)cc1 | 131 |

Repeated from above, the 3 entries with the highest mp:

| compound | mp (°C) |
|---|---|
| NNc1ncnc2sc(-c3ccccc3)cc12 | 264 |
| Cc1nc2ncnn2c(C)c1CCC(=O)O | 225 |
| Nc1ccc2oc(=O)[nH]c2c1 | 205 |